Data on one compound can be found in patent publication US20230144528A1, “CDK Inhibitors And Their Use As Pharmaceuticals” (Prelude Therapeutics Incorporated, priority 2021, published 2023).

Values after ≈ are worked out from the molar mass of the structure shown.

A short description of series [1]: physchem. The conditions noted are these: Fasted State Simulated Intestinal Fluid (FaSSIF).
A short description of series [2]: physchem. The conditions noted are these: 0.1 M HCl aqueous solution, pH 1.08, simulated gastric fluid.

As usually defined, the solubility is the dissolved amount per volume that the medium holds. High values mean much dissolved substance, low ones little dissolved substance. On to `Cc1cnc(NC(=O)[C@H]2CCC[C@@H](NC(=O)CC#N)C2)cc1-c1cc(F)c2ncn(C(C)C)c2c1` [Example 80, (1S,3R)-3-(2-cyanoacetamido)-N-(4-(4-fluoro-1-isopropyl-1H-benzo[d]imidazol-6-yl)-5-methylpyridin-2-yl)cyclohexane-1-carboxamide], for which the solubility in “physchem [1]” was approximately 220 µg/mL (≈ 462 µM); in the series “physchem [2]”, more than 1000 µg/mL.
